# Measured values from PubChem BioAssay (NCI).
# Several values for one entry are separate records, joined by “and”; a condition that tells them apart may be missing. Equal values may be shown once.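 Interpolation was linear, between the two tested concentrations surrounding the appropriate level; five concentrations were tested over 48 hours in 96-well plates. GI50: concentration for 50% inhibition of growth. TGI is the concentration that stops growth completely.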
# Columns and labels:
# Test in all cases: NCI tumour cell line growth inhibition, 48 h
# UACC-62 melanoma = tested on: UACC-62 melanoma
# DMS 114 small cell lung = tested on: DMS 114 small cell lung
# NCI-H522 lung = tested on: NCI-H522 lung
# KM20L2 colon = tested on: KM20L2 colon
# DLD-1 colon = tested on: DLD-1 colon
# MDA-N = tested on: MDA-N
# SR leukemia = tested on: SR leukemia
# M19-MEL melanoma = tested on: M19-MEL melanoma
# OVCAR-3 ovarian = tested on: OVCAR-3 ovarian
# LOX IMVI melanoma = tested on: LOX IMVI melanoma
# SNB-78 CNS = tested on: SNB-78 CNS
# SNB-75 CNS = tested on: SNB-75 CNS
# NCI/ADR-RES ovarian = tested on: NCI/ADR-RES ovarian
# SN12K1 renal = tested on: SN12K1 renal
# P388 leukemia = tested on: P388 leukemia
# BT-549 breast = tested on: BT-549 breast
# NCI-H460 lung = tested on: NCI-H460 lung
# SK-MEL-5 melanoma = tested on: SK-MEL-5 melanoma
# KM12 colon = tested on: KM12 colon
# HS 578T breast = tested on: HS 578T breast
# CCRF-CEM leukemia = tested on: CCRF-CEM leukemia
# MCF7 breast = tested on: MCF7 breast
# LXFL 529 NSCLC = tested on: LXFL 529 NSCLC
# RXF 393 renal = tested on: RXF 393 renal
# P388/ADR leukemia = tested on: P388/ADR leukemia
# DMS 273 small cell lung = tested on: DMS 273 small cell lung
# MALME-3M melanoma = tested on: MALME-3M melanoma
# MDA-MB-435 = tested on: MDA-MB-435
# SW-620 colon = tested on: SW-620 colon
structure (smiles),measurement,setting,value
CC1=CC2OC3CC4OC(=O)/C=C/C=C/C(C(C)O)OCC(O)C(C)CC(=O)OCC2(CC1O)C4(C)C31CO1 (stereo not given),TGI,UACC-62 melanoma,7.83 nM and 24.4 nM
same,GI50,DMS 114 small cell lung,1.66 nM
same,TGI,DMS 114 small cell lung,2.7 nM
same,TGI,NCI-H522 lung,2.28 nM
same,GI50,KM20L2 colon,4.62 nM and 19.4 nM
same,TGI,KM20L2 colon,17.4 nM and 38.6 nM
same,GI50,DLD-1 colon,4.11 nM and 18.4 nM
same,TGI,DLD-1 colon,13.8 nM and 52.9 nM
same,GI50,MDA-N,2.17 nM
same,TGI,MDA-N,5.49 nM and 17.9 nM
same,GI50,SR leukemia,2.48 nM
same,GI50,M19-MEL melanoma,3.21 nM
same,TGI,M19-MEL melanoma,4.7 nM and 20 nM
same,TGI,OVCAR-3 ovarian,9.67 nM and 22.1 nM and 22 nM
same,TGI,LOX IMVI melanoma,4.08 nM
same,GI50,SNB-78 CNS,4.87 nM and 20.2 nM
same,TGI,SNB-78 CNS,12.5 nM and 40.3 nM
same,TGI,SNB-75 CNS,15.8 nM and 16.2 nM and 21.3 nM
same,GI50,NCI/ADR-RES ovarian,1390 nM and 518 nM
same,TGI,NCI/ADR-RES ovarian,4870 nM and 3800 nM
same,TGI,SN12K1 renal,20.9 nM
same,TGI,P388 leukemia,175 nM
same,TGI,BT-549 breast,22 nM
same,TGI,NCI-H460 lung,6.64 nM and 13.8 nM and 26.2 nM
same,TGI,SK-MEL-5 melanoma,4.19 nM
same,TGI,KM12 colon,15.6 nM and 65.8 nM and 43 nM
same,TGI,HS 578T breast,3.23 nM
same,GI50,CCRF-CEM leukemia,1.82 nM
same,TGI,MCF7 breast,756 nM
same,GI50,LXFL 529 NSCLC,1.74 nM
same,TGI,LXFL 529 NSCLC,3.38 nM
same,TGI,RXF 393 renal,10.2 nM and 24.6 nM
same,GI50,P388/ADR leukemia,59.1 nM
same,TGI,P388/ADR leukemia,295 nM
same,GI50,DMS 273 small cell lung,13.9 nM
same,TGI,DMS 273 small cell lung,33.8 nM and 17.9 nM
same,TGI,MALME-3M melanoma,4.1 nM
same,GI50,MDA-MB-435,2.66 nM
same,TGI,MDA-MB-435,10.5 nM and 16.4 nM
same,TGI,SW-620 colon,170 nM and 56.8 nM and 248 nM
